Source: patent US9663512B2, “Bicyclic heterocycle compounds and their uses in therapy” (ASTEX THERAPEUTICS LIMITED, priority 2012, dated 2017)
Counter-ions that a name gives are not always drawn.

Chains of the proteins cited; added tags and fusions are not shown. Residues count along the entry.
UniProt P98170, 252-350: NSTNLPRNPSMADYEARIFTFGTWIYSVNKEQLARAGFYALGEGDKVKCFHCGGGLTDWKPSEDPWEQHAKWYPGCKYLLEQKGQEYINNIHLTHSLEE
UniProt Q13490, 267-363: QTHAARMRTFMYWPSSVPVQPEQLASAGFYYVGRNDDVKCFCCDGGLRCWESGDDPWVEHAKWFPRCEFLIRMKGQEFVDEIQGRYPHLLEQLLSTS

Key:
[1] = biological target: T1, BIR3 domain of human XIAP (Homo sapiens, UniProt P98170); assay: XIAP in vitro competitive displacement binding assay (fluorescence polarization); settings: read-out: Xiap IC50 or PI (percent inhibition)
T1 construct: BIR3 domain of human XIAP (residues 252-350) fused to a His-tag; His-tag (cleaved yes); made in house; host or cells: Escherichia coli

[2] = biological target: T2, BIR3 domain of human cIAP-1 (Homo sapiens, UniProt Q13490); assay: cIAP-1 in vitro competitive displacement binding assay (fluorescence polarization); settings: read-out: cIAP1 IC50 or PI (percent inhibition)
T2 construct: human cIAP-1 (residues 267-363) fused to a GST-tag; GST-tag (cleaved yes); made in house; host or cells: Escherichia coli

| SMILES | inhibition at 0.04 µM [1] [%] | inhibition at 0.012 µM [2] [%] | inhibition at 0.12 µM ([1]; at 0.12 μM) [%] |
| --- | --- | --- | --- |
| Cc1cn(C[C@H]2CN[C@H](C)CN2CC(=O)N2CC(C)(C)c3ncc(Cc4ccc(F)cc4)cc32)cn1 (single isomer, unassigned) [Example 13, dihydrochloride] | 38 | 97 | – |
| Cc1cncn1C[C@H]1CN[C@H](C)CN1CC(=O)N1CC(C)(C)c2ncc(Cc3ccc(F)cc3)cc21 (single isomer, unassigned) [Example 14, dihydrochloride] | 38 | 98 | – |
| Cc1cc(C)n(C[C@H]2CN[C@H](C)CN2CC(=O)N2CC(C)(C)c3ncc(Cc4ccc(F)cc4)cc32)n1 [Example 1, 2-[(2R,5R)-2-[(3,5-Dimethyl-1H-pyrazol-1-yl)methyl]-5-methylpiperazin-1-yl]-1-{6-[(4-fluorophenyl)methyl]-3,3-dimethyl-1H,2H,3H-pyrrolo[3,2-b]pyridin-1-yl}ethan-1-one, dihydrochloride] | – | 98 | – |
| C[C@@H]1CN(CC(=O)N2CC(C)(C)c3ncc(Cc4ccc(F)cc4)cc32)[C@@H](Cn2ccnc2)CN1 [Example 6, 1-{6-[(4-Fluorophenyl)methyl]-3,3-dimethyl-1H,2H,3H-pyrrolo[3,2-b]pyridin-1-yl}-2-[(2R,5R)-2-(1H-imidazol-1-ylmethyl)-5-methylpiperazin-1-yl]ethan-1-one, dihydrochloride] | – | 89 | – |
| Cc1cn(C[C@H]2CN[C@H](C)CN2CC(=O)N2CC(C)(C)c3ncc(Cc4ccc(F)cc4)cc32)c(C)n1 [Example 7, 2-[(2R,5R)-2-[(2,4-Dimethyl-1H-imidazol-1-yl)methyl]-5-methylpiperazin-1-yl]-1-{6-[(4-fluorophenyl)methyl]-3,3-dimethyl-1H,2H,3H-pyrrolo[3,2-b]pyridin-1-yl}ethan-1-one, dihydrochloride] | 41 | 100 | – |
| Cc1cnnn1C[C@H]1CN[C@H](C)CN1CC(=O)N1CC(C)(C)c2ncc(Cc3ccc(F)cc3)cc21 [Example 15, 1-{6-[(4-Fluorophenyl)methyl]-3,3-dimethyl-1H,2H,3H-pyrrolo[3,2-b]pyridin-1-yl}-2-[(2R,5R)-5-methyl-2-[(5-methyl-1H-1,2,3-triazol-1-yl)methyl]piperazin-1-yl]ethan-1-one, dihydrochloride] | – | 85 | – |
| Cc1cn(C[C@H]2CN[C@H](C)CN2CC(=O)N2CC(C)(C)c3ncc(Cc4ccc(F)cc4)cc32)nn1 [Example 16, 1-{6-[(4-Fluorophenyl)methyl]-3,3-dimethyl-1H,2H,3H-pyrrolo[3,2-b]pyridin-1-yl}-2-[(2R,5R)-5-methyl-2-[(4-methyl-1H-1,2,3-triazol-1-yl)methyl]piperazin-1-yl]ethan-1-one, dihydrochloride] | – | 93 | 52 |
